Experiment: Thermogravimetric analysis (TGA), decomposition temperature
Format: physicochemical

Ethambutol-(HCl)2—(ZnCl2)2
ΔTdec (increase in decomposition temperature relative to HCl starting material): −33.6 °C
